{"source": "patent US12605367B2", "about": "“Methods of treatment and/or prevention of disorders and symptoms related to BKCa and/or SK channelophathies” (UNIVERSITE DE BORDEAUX, priority 2019, dated 2026)", "origin": "cited, not measured here", "system": "autistic children", "conditions": "cited from earlier work", "data": [{"smiles": "Cc1nc2n(c(=O)c1CCN1CCC(c3noc4cc(F)ccc34)CC1)CCCC2", "note": "[risperidone]", "values": [{"measurement": "adverse events", "value": "weight gain, increased appetite, fatigue, drowsiness, dizziness, and drooling"}]}]}
